From PubChem BioAssay (NCATS)
Values joined by “and” are separate entries in the source; they are usually repeats but may differ in a detail not shown here. Equal entries are not always repeated. For part of these data: Shown are results outside the selection of hits, which stands elsewhere. Results filed as inconclusive are left out. This is a selection; strong and weak results do not stand in their true shares. Active and inactive are the calls of the source.

Protein sequences, listed by entry. Tags and fused reporters are not part of them. Lines headed by an entry give the natural chain unless they say otherwise; changes in a name come on top.
UniProt P08482: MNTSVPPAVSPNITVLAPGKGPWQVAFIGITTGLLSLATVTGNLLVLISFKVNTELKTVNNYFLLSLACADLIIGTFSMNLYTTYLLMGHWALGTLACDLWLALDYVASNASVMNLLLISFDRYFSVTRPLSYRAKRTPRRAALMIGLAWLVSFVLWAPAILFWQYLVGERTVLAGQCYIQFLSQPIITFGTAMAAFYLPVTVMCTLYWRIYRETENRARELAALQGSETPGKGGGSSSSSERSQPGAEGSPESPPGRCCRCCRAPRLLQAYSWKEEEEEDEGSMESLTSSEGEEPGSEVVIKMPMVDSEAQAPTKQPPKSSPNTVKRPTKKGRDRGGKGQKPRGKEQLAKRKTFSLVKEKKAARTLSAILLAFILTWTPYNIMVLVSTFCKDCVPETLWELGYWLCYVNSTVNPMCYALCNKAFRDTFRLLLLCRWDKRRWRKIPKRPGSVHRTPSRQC
UniProt P46063: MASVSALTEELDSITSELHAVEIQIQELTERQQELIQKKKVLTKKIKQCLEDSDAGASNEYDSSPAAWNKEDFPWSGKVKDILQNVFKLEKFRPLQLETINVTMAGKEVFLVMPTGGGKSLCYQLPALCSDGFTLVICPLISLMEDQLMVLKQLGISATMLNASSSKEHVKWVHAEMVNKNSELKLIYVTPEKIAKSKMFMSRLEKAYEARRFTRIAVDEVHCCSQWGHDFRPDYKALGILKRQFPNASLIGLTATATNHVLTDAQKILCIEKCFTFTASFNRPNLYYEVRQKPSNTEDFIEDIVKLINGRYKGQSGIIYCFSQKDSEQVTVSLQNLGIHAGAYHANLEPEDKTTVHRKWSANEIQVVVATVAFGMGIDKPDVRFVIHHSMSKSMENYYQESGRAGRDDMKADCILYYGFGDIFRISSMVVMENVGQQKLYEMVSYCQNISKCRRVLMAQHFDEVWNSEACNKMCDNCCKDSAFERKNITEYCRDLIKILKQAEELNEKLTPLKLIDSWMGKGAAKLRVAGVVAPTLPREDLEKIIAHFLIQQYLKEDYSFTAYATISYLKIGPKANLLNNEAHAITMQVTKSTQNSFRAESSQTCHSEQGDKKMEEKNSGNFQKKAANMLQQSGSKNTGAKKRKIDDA
UniProt P54132: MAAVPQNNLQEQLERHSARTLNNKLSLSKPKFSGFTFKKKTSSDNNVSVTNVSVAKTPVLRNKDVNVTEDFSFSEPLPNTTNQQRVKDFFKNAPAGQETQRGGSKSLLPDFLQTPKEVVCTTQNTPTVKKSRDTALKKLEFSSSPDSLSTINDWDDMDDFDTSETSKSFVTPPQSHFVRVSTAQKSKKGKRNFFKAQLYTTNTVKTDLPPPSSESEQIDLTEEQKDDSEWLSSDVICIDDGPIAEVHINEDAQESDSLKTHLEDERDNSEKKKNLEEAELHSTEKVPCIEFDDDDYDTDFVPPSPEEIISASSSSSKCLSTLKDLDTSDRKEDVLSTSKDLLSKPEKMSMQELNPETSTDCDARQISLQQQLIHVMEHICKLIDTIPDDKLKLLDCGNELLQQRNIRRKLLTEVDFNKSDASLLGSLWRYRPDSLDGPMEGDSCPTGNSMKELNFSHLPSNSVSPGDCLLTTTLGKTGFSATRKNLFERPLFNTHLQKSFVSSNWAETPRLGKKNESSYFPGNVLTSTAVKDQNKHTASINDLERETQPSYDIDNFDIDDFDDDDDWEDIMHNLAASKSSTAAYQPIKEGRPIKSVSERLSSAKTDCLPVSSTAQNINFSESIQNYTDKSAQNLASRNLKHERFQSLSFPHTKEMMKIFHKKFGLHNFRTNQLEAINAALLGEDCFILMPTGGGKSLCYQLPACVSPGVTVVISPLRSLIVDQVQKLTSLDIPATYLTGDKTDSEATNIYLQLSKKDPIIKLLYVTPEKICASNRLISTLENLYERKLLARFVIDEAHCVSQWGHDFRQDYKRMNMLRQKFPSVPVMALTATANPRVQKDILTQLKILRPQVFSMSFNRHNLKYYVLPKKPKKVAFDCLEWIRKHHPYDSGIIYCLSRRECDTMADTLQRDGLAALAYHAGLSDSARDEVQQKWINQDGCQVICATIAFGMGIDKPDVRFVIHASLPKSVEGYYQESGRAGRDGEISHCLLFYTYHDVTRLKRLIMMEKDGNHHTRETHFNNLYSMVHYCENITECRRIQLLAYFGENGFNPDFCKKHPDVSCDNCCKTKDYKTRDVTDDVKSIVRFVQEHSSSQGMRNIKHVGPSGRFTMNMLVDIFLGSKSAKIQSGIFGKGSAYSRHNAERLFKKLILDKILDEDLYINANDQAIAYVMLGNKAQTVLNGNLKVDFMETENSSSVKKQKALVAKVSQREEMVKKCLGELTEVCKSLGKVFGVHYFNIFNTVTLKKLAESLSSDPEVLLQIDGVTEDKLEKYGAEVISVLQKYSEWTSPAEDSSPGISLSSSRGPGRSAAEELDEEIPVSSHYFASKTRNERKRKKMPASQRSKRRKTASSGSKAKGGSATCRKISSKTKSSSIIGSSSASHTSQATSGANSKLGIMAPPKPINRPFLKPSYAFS
UniProt O75604: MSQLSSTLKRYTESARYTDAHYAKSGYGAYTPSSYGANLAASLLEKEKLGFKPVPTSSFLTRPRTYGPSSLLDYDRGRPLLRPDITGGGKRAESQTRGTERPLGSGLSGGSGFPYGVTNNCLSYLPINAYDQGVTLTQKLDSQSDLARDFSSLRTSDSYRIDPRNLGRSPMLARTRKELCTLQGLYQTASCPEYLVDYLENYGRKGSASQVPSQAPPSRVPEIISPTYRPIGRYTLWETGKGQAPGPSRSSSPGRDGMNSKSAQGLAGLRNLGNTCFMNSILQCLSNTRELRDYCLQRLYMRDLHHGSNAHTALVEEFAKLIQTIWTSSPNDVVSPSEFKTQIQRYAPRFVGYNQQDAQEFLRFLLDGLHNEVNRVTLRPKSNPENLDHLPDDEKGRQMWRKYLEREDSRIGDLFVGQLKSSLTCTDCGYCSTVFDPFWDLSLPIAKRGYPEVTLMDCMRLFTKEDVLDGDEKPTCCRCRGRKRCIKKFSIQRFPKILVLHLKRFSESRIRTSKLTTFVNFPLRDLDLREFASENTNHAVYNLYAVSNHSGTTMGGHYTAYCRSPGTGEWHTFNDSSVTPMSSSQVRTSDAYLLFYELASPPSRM
UniProt P39748, whole entry, looked up: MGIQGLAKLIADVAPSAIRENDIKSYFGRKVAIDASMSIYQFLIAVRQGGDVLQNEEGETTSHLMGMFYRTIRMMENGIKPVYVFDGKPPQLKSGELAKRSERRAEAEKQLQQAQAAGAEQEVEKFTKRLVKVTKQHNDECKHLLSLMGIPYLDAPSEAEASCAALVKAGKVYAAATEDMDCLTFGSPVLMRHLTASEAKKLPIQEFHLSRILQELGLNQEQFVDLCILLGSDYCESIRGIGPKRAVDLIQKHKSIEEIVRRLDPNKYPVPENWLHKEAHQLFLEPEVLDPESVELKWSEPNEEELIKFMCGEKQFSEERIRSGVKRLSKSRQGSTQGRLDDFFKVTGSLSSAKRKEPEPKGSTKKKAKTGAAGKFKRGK
UniProt P02791: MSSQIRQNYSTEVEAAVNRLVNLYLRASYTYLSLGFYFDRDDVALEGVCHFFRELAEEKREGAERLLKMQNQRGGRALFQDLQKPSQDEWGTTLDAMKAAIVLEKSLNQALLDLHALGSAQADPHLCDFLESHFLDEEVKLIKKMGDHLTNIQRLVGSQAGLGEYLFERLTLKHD
UniProt Q9NUW8, whole entry, looked up: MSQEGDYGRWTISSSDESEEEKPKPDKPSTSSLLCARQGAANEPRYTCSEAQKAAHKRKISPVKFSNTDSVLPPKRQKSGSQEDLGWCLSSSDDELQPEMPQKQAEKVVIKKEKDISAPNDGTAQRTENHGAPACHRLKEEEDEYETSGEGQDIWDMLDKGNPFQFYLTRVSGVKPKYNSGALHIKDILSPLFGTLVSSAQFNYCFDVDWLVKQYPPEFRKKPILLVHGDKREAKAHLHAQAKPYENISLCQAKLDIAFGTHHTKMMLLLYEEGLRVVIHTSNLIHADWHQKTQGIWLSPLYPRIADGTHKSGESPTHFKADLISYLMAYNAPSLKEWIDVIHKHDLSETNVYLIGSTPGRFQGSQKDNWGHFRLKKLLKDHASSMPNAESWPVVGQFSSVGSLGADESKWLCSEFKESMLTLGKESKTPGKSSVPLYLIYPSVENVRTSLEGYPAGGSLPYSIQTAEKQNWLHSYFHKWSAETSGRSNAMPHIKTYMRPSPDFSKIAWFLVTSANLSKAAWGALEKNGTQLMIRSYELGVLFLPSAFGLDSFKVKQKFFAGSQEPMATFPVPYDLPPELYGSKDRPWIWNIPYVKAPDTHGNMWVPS
UniProt O94782: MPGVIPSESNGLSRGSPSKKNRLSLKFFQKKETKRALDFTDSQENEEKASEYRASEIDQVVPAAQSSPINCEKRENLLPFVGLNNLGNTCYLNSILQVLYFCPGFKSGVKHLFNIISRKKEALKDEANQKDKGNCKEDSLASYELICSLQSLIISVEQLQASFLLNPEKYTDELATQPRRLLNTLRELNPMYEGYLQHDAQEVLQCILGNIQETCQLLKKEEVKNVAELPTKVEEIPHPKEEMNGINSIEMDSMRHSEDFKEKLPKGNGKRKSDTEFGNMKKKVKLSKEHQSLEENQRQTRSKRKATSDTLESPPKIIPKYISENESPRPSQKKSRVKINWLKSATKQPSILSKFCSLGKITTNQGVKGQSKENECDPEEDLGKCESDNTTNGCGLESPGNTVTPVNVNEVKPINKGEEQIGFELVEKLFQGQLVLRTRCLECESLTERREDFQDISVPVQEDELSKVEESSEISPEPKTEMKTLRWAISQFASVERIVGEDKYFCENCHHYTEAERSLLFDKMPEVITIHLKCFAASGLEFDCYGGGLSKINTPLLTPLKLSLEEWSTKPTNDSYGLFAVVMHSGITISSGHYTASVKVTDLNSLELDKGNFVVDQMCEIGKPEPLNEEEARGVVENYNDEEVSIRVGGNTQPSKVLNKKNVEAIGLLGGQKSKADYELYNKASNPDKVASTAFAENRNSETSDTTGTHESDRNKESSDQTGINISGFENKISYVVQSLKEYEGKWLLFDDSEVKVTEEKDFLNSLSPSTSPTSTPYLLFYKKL
UniProt P10275: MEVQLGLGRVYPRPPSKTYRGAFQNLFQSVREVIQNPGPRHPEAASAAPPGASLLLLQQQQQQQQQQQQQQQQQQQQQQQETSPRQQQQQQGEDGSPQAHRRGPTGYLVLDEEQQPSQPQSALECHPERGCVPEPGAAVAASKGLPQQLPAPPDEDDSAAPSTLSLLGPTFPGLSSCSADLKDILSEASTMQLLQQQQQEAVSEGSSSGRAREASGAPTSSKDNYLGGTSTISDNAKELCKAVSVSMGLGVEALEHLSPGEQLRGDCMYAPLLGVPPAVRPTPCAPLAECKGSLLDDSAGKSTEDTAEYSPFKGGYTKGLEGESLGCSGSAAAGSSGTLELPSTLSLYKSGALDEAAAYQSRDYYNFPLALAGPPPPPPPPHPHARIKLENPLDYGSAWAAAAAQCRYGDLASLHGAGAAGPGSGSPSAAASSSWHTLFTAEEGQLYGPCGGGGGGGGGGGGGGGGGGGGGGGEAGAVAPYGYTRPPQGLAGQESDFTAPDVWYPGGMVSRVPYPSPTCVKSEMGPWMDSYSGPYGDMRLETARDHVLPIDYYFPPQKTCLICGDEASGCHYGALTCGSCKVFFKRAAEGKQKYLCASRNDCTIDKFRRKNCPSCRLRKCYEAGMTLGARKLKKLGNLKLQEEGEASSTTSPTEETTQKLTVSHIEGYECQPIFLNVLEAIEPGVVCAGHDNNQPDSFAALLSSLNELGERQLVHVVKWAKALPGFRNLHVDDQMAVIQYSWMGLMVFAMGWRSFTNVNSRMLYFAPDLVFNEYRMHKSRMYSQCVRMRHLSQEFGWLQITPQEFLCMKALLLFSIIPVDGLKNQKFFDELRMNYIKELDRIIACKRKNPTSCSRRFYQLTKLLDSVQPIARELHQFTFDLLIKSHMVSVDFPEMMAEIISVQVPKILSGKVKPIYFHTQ
UniProt Q03181: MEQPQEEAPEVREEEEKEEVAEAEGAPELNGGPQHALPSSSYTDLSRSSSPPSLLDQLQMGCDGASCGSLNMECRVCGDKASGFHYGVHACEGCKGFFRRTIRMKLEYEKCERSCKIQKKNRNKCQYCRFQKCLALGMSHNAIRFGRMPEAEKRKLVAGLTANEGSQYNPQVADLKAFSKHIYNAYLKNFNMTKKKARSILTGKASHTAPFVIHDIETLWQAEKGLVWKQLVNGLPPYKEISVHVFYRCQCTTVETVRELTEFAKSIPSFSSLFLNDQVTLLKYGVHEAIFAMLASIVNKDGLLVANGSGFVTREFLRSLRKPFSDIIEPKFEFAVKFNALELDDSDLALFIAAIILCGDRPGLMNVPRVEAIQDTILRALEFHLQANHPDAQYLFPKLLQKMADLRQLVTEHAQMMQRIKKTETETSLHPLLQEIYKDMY

Legend:
[1] = molecular target: Muscarinic acetylcholine receptor M1 (Rattus norvegicus) (UniProt P08482); test: qHTS Assay for Antagonists of Acetylcholine Muscarinic M1 Receptor: Kinetic Measurement of Intracellular Calcium Response (AID 943); conditions: M1-expressing cells, kinetic intracellular calcium fluorescence
Summary of the method: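 CHO cells stably expressing rat M1 were loaded with no-wash Fluo-4 dye for 1 h at 37C, pre-incubated 10 min with compound, then challenged with EC80 carbachol (100 nM final); kinetic calcium read 4 min, peak/basal ratio.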

[2] = molecular target: Muscarinic acetylcholine receptor M1 (Rattus norvegicus) (UniProt P08482); test: qHTS Assay for Antagonists of Acetylcholine Muscarinic M1 Receptor: Measurement of IP-One Response (AID 944); conditions: CHO-M1 cells, IP-One HTRF, antagonist mode
Summary of the method: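 CHO cells expressing rat M1 receptor, recovered overnight, were pre-incubated 10 min with compound, then stimulated 30 min with carbachol at EC80 (200 nM) in LiCl-containing buffer, pH 7.4. IP1 accumulation was read by HTRF (620/665 nm).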

[3] = qHTS Assay for Lipid Storage Modulators (AID 1519); conditions: Drosophila S3 cells, BODIPY lipid droplet/cell ratio, laser cytometry, cells loaded with oleic acid
Summary of the method: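 Cells seeded at 5,000 per well were treated with compounds over a concentration series and loaded with oleic acid (400 uM, as added). Lipid droplet fluorescence (488 nm excitation, 500-530 nm channel) was read by laser-scanning cytometry and normalized to 20 uM Triacsin C.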

[4] = qHTS for differential inhibitors of proliferation of Plasmodium falciparum line GB4 (AID 1816); conditions: at 28.7 µM (top of the series)
[5] = qHTS for differential inhibitors of proliferation of Plasmodium falciparum line 3D7 (AID 1876); conditions: P. falciparum 3D7 proliferation inhibition; at 28.7 µM (top of the series)
[6] = qHTS for differential inhibitors of proliferation of Plasmodium falciparum line D10 (AID 1877); conditions: at 28.7 µM (top of the series)
[7] = qHTS for differential inhibitors of proliferation of Plasmodium falciparum line HB3 (AID 1886); conditions: at 28.7 µM (top of the series)
[8] = molecular target: ATP-dependent DNA helicase Q1 (Homo sapiens) (UniProt P46063); test: qHTS Validation Assay for Inhibitors of RecQ-Like Dna Helicase 1 (RECQ1) (AID 2353); conditions: recombinant RECQ1 helicase DNA unwinding assay; at 25.6 µM (top of the series)
Summary of the method: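 50 nM RECQ1T1 preincubated 15 min with compound in Tris pH 8.0 buffer with MgCl2, DTT, Tween-20 and 2.5 ug/ml poly(dI-dC); started with 200 nM TAMRA/BHQ-2 forked duplex and 2 mM ATP. Unwinding read as fluorescence (525/598 nm), two reads 2 h apart.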

[9] = molecular target: RecQ-like DNA helicase BLM (Homo sapiens) (UniProt P54132); test: qHTS Validation Assay for Inhibitors of Bloom's syndrome helicase (BLM) (AID 2364); conditions: BLM helicase DNA unwinding, fluorescence, in vitro; at 57.1 µM (top of the series)
Summary of the method: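 BLM 50 nM in 25 mM Tris-HCl pH 8.0, 5 mM NaCl, 2 mM MgCl2, 1 mM DTT, 0.01% Tween-20, 2.5 ug/ml poly(dI-dC); 15 min cpd preinc, RT. Start: 200 nM forked DNA + 2 mM ATP (final). TAMRA read, 2 reads 2 h apart.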

[10] = molecular target: Ubiquitin carboxyl-terminal hydrolase 2 (Homo sapiens) (UniProt O75604); test: qHTS Validation Assay for Inhibitors of Ubiquitin-specific Protease USP2a Using CHOP2 as the Reporter (AID 463106); conditions: USP2a cleavage of CHOP2 reporter, enzymatic; at 38.3 µM (top of the series)
Summary of the method: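 USP2 core (10nM final) was preincubated with compound for 30min at RT in 20mM Tris-HCl pH 8.0, 2mM CaCl2, 2mM beta-mercaptoethanol, 0.05% CHAPS. Ub-CHOP2 and reporter substrate (25nM each) were added, and fluorescence (Ex 485/Em 531nm) was read after 60min.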

[11] = molecular target: Flap endonuclease 1 (Homo sapiens) (UniProt P39748); test: qHTS Validation Assay for the Inhibitors of Human Flap endonuclease 1 (FEN1) (AID 488816); conditions: FEN1 nuclease activity, fluorogenic DNA substrate; at 57.1 µM (top of the series)
Summary of the method: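 FEN1, dispensed as a 10 nM reagent, was preincubated with pin-transferred compounds for 15 min at room temperature before substrate was added (50 nM final). Plates were read at 0 and 15 min, and a four-parameter Hill equation was fitted to the concentration-response data.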

[12] = qHTS Assay for Identifying Gametocytocidal Compounds (AID 743244); conditions: P. falciparum 3D7 stage III-V gametocytes, alamarBlue, 72 h; stronger effect = lower value
Summary of the method: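 Using 20,000 stage III–V 3D7 gametocytes per well, compounds were incubated 72 h under 37 °C/5% CO2. Viability was then assessed by 24 h alamarBlue reduction, measured fluorometrically at 525/598 nm.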

[13] = Validation qHTS assay for inhibitors of Activation Induced Cytidine Deaminase (AID): UDG Counterscreen signal (AID 1347427); conditions: biochemical UDG counterscreen, fluorescence signal; at 115 µM (top of the series)
Summary of the method: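 Counterscreen read of UDG activity (2 U/mL, 4/3x) in the FRET deamination format with AID (1 uM, 4/3x), DJC20/DJC23 substrates (250 nM, 4x), 4 h at room temperature. NaOH stop, fluorescence at 560 ex/665 em.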

[14] = molecular target: Single-stranded DNA cytosine deaminase (Homo sapiens) (UniProt Q9GZX7); test: Validation qHTS assay for inhibitors of Activation Induced Cytidine Deaminase (AID): AID signal (AID 1347429); conditions: Recombinant AID, FRET ssDNA deamination with UDG, fluorescence; at 115 µM (top of the series)
Summary of the method: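 AID and UDG were combined and compounds added at final up to 114 uM, then DJC20/DJC23 FRET substrate was added for 4 hr at room temperature. NaOH was then added for 30 min before fluorescence was read at 540/590 nm.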

[15] = molecular target: Ferritin light chain (Equus caballus) (UniProt P02791); test: qHTS Validation Assay for Identification of Novel General Anesthetics (AID 2323); conditions: horse apoferritin, anesthetic-site fluorescent probe displacement; at 76.9 µM (top of the series)
Summary of the method: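 Fluorescence at 535 nm (excitation 380 nm) reported loss of 1-AMA binding to horse-spleen apoferritin (10 uM) in PBS with 50% saturated 1-aminoanthracene, after 10 min room-temperature incubation with compound; values from Hill fits of normalized response.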

[16] = molecular target: Chromobox protein homolog 1 (Homo sapiens) (UniProt P83916); test: qHTS Validation Assay for Inhibitors of HP1-beta Chromodomain Interactions with Methylated Histone Tails (AID 488953); conditions: HP1-beta chromodomain / methylated histone peptide binding assay
Summary of the method: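 HP1-beta (50 nM) was preincubated 30 min at room temperature with biotinylated H3(1-18)K9me3 peptide (50 nM) in PBS pH 7.4, 0.01% Tween-20, then with compounds 30 min. AlphaScreen signal was read after streptavidin donor/nickel chelate acceptor beads (10 ug/mL final).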

[17] = molecular target: Tyrosyl-DNA phosphodiesterase 1 (Homo sapiens) (UniProt Q9NUW8); test: Confirmation Assay for Inhibitors of Tyrosyl-DNA Phosphodiesterase (TDP1) (AID 489007); conditions: recombinant human TDP1 enzymatic activity, dose-response
Summary of the method: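 Recombinant E. coli-expressed Tdp1 (1 nM final) was preincubated with compounds 15 min at room temperature, then reacted 5 min with 15 nM 5'-biotin/3'-phosphotyrosine-FITC DNA substrate; cleavage read as loss of AlphaScreen signal (10 ug/ml beads, 10 min).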

[18] = molecular target: Ubiquitin carboxyl-terminal hydrolase 1 (Homo sapiens) (UniProt O94782); test: Inhibitors of USP1/UAF1: Pilot qHTS (AID 504865); conditions: purified USP1/UAF1, Ub-rhodamine cleavage fluorescence
Summary of the method: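 In 50mM HEPES pH 7.8 containing 0.5mM EDTA, 1mM TCEP, 0.1 mg/ml BSA and 0.01% Tween-20, 1nM USP1/UAF1 is exposed to compound for 15 min, then Ub-Rho (150nM final) is added and fluorescence is read over time.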

[19] = molecular target: Androgen receptor (Homo sapiens) (UniProt P10275); test: qHTS assay for small molecule antagonists of androgen receptor signaling (AID 588516); conditions: AR-UAS-bla HEK293, beta-lactamase ratio, antagonist mode, 16 h; at 76.8 µM (top of the series)
[20] = molecular target: Peroxisome proliferator-activated receptor delta (Homo sapiens) (UniProt Q03181); test: qHTS assay for small molecule agonists of peroxisome proliferator-activated receptor delta signaling (AID 588534); conditions: HEK293T PPARdelta-UAS-bla, beta-lactamase ratio, 18 h; at 76.7 µM (top of the series)
[21] = qHTS assay for small molecule antagonists of peroxisome proliferator-activated receptor delta signaling (AID 588535); conditions: HEK293T PPARd-UAS-bla, beta-lactamase FRET ratio, 18 h; 460 nm channel
[22] = molecular target: Peroxisome proliferator-activated receptor delta (Homo sapiens) (UniProt Q03181); test: as above; conditions: HEK293T PPARd-UAS-bla, beta-lactamase FRET ratio, 18 h; at 76.7 µM (top of the series)
[23] = S16 Schwann cell viability assay (CellTiter-Glo assay) (AID 624031); conditions: S16 rat Schwann cells viability, 24 h; at 57.5 µM (top of the series)
Summary of the method: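 Rat S16 Schwann cells without reporter constructs received compound or DMSO for 24 h at 37 °C under 5% CO2. Cellular ATP was then quantified by CellTiter-Glo luminescence, with vehicle wells defined as 0% activity and cell-free wells as reference.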

[24] = S16 Schwann cell PMP22 intronic element firefly luciferase assay (AID 624032); conditions: S16 rat Schwann cells, PMP22 element FLuc, 24 h; at 57.5 µM (top of the series)
Summary of the method: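 Rat S16 Schwann cells stably carrying a PMP22 intronic element-driven Fluc reporter were seeded overnight, then exposed to compounds for 24 h at 37 °C. Luminescence was normalized to PTC124 (positive control) and DMSO (0% activity).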

[25] = measured here: cell count channel max response
[26] = measured here: lipid channel max response

C[N+]1(C)[C@@H]2CC[C@H]1CC(OC(=O)[C@@H](CO)c1ccccc1)C2 (stereo not given in full)
Potency [1]: active: 11.2 nM and active: 12.6 nM | Potency [2]: active: 2.5 nM

C[C@@H](Cc1ccc(O)cc1)NC[C@@H](O)c1cc(O)cc(O)c1
activity change, negative = inhibition ([3]; at 25.7 µM (top of the series)): inactive: 0.601% | max response [3, 25]: -3.2% | max response [3, 26]: -0.602%

CC(Cc1ccc(O)cc1)NCC(O)c1cc(O)cc(O)c1 (stereo not given)
activity change, negative = inhibition ([3]; at 57.5 µM (top of the series)): inactive: 2.07% | max response [3, 25]: 8.19% | max response [3, 26]: 11% | activity change, negative = inhibition [4]: inactive: -20% | activity, negative = inhibition [5]: inactive: 0.154% | activity change, negative = inhibition [6]: inactive: -10.7% | activity change, negative = inhibition [7]: inactive: -12.7% | activity change, negative = inhibition [8]: inactive: 3.27% | activity change, negative = inhibition [9]: inactive: -4.7% | activity, negative = inhibition [10]: inactive: 4.01% | activity, negative = inhibition [11]: inactive: 0.0214% | max response [12]: inactive: 11.6% and inactive: 22.7% | activity, negative = inhibition [13]: inactive: 7.55% | activity change, negative = inhibition [14]: inactive: 13.3%

Cc1nccc2c1[nH]c1ccccc12
activity change, negative = inhibition [15]: inactive: 976%

CS(=N)(=O)CC[C@H](N)C(=O)O (stereo not given in full)
Potency [16]: active: 6.7 nM

C[C@]12CC[C@@H]3c4ccc(OC(=O)N(CCCl)CCCl)cc4CC[C@H]3[C@@H]1CC[C@@H]2O
Potency [17]: active: 7250 nM

Cn1c(=O)c2[nH]cnc2n(C)c1=O
activity change, negative = inhibition ([18]; at 54.9 µM (top of the series)): inactive: 17.1% | activity change, negative = inhibition ([18]; at 114 µM (top of the series)): inactive: -7.54% and inactive: -1.44%

COP(=S)(OC)SCn1nnc2ccccc2c1=O
activity change, negative = inhibition [19]: inactive: -2.09%

O=C(O)COc1ccc(Cl)cc1Cl
activation [20]: inactive: -13.9% and inactive: -13.6% | max response [21]: 50% and 52.6% | activity change, negative = inhibition [22]: inactive: 13.1% and inactive: 25.4%

COc1ccc(C[C@H](C)NC[C@@H](O)c2ccc(O)c(NC=O)c2)cc1
activity change, negative = cytotoxicity [23]: inactive: -12% | activity change, negative = inhibition [24]: inactive: -24.4%
